We go through one compound from PubChem BioAssay AID603 (National Center for Advancing Translational Sciences (NCATS), 2007).

Each structure is given as a SMILES string. Where “and” joins values, the source holds several entries; their conditions need not be identical. Equal entries are not always repeated. The list shows a part of the results, in another mix than the full data. Calls of active or inactive are those of the source. Calls follow the shape of the dose curve; as a rule, active = well fitted curve in the direction sought with a large enough effect; inconclusive = small, poorly fitted or top-dose-only effect; inactive = flat fitted curve, though single readings scatter.
Potency is read from the fitted curve at half-maximal effect.

The subject of this experiment is DNA polymerase III holoenzyme (E. coli). In words: qHTS Assay for Inhibitors of DNA Polymerase III Holoenzyme System. As to conditions: reconstituted DNA polymerase III holoenzyme replication, biochemical. The procedure:
NIH Molecular Libraries Screening Centers Network [MLSCN]
NIH Chemical Genomics Center [NCGC]
Assay Provider: Charles McHenry, University of Colorado
E. coli DNA polymerase III holoenzyme complex was assayed for DNA production by fluorescent detection of the double-stranded DNA product with PicoGreen dye. The holoenzyme complex was reconstituted from the following purified protein components: DNA Polymerase III, beta subunit processivity factor, SSB single-stranded DNA binding protein, and Primase. Single-stranded, circular M13Gori was used as a substrate with dNTPs and NTPs also supplied to the substrate reagent. Compounds from the NCGC collection were incubated with the holoenzyme mixture for 15 min at room temperature to allow binding to occur, and then the reaction was started by the addition of substrate. […] Reaction progress was measured in a ViewLux CCD imager in fluorescence intensity mode by using 480 nm excitation and 540 nm emission filter set. […]
Three uL of holoenzyme mixture were dispensed to 1536-well Greiner black solid bottom plates. […] After room temperature incubation for 35 minutes, 1 uL of PicoGreen solution was added to each well and the plates were read 480 nm excitation and 540 nm emission using ViewLux (Perkin-Elmer) High-throughput CCD imager and fluorescence protocol settings. […]
In the case of `O=c1c(O)c(-c2cc(O)c(O)c(O)c2)oc2cc(O)cc(O)c12`, the Potency was active: 1.58 µM and active: 251 nM.
